# Laboratory results reported in ChEMBL document CHEMBL3232818, “Imidazole-derived 2-[N-carbamoylmethyl-alkylamino]acetic acids, substrate-dependent modulators of insulin-degrading enzyme in amyloid-β hydrolysis” (Eur J Med Chem, 2014).
# Legend:
# Insulin-degrading enzyme [1] = target: T1, Insulin-degrading enzyme (Homo sapiens, UniProt P14735)
# T1 sequence (P14735 whole entry): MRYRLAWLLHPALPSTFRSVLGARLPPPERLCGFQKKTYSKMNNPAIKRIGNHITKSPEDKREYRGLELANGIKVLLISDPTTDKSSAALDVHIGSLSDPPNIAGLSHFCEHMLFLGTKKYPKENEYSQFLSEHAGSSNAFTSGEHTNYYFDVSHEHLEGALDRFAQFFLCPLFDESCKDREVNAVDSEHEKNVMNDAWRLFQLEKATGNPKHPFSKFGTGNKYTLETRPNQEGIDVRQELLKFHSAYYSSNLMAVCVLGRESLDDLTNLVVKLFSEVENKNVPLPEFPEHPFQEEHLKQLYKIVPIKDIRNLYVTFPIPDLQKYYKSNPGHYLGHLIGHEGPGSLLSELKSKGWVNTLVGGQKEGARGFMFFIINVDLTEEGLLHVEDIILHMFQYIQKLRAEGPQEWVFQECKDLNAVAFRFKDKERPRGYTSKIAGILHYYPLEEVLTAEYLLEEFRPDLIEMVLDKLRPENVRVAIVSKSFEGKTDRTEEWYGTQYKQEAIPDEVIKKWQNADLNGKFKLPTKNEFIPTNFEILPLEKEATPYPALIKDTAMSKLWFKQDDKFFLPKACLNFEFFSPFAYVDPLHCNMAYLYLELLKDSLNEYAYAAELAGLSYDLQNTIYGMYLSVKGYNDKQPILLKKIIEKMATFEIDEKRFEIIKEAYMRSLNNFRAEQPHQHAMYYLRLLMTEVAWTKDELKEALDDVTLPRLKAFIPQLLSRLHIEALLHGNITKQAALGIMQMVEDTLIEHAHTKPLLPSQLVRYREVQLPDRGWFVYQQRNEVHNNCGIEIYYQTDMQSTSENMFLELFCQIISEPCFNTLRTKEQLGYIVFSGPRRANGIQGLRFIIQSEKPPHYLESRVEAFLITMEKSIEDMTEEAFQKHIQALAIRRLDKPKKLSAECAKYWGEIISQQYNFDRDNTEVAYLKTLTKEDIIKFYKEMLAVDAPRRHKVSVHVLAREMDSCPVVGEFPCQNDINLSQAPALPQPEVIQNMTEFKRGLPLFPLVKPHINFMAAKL
# Insulin-degrading enzyme [2] = target: T1, Insulin-degrading enzyme; remark: listed apart in the source
# Insulin-degrading enzyme [3] = target: T1, Insulin-degrading enzyme; assay: Inhibition of human recombinant IDE-mediated amyloid beta (16 to 23) hydrolysis using ATTO 655-Cys-Lys-Leu-Val-Phe-Phe-Ala-Glu-Asp-Trp as substrate preincubated for 10 mins measured after 30 mins by spectrophotometer analysis
compound,measurement,setting,value
CNC(=O)[C@H](Cc1c[nH]cn1)NC(=O)CN(CCCc1ccccc1)CC(=O)O,IC50,Insulin-degrading enzyme [1],3.1 µM
same,EC50,Insulin-degrading enzyme [2],0.53 µM
same,IC50,Insulin-degrading enzyme [3],0.1 µM
